Values quoted from earlier work, collected in paper PMC4987652 (Scientific Reports, 2016).

Protein sequences, listed by entry. Tags and fused reporters are not part of them.
UniProt P35372, whole entry, looked up: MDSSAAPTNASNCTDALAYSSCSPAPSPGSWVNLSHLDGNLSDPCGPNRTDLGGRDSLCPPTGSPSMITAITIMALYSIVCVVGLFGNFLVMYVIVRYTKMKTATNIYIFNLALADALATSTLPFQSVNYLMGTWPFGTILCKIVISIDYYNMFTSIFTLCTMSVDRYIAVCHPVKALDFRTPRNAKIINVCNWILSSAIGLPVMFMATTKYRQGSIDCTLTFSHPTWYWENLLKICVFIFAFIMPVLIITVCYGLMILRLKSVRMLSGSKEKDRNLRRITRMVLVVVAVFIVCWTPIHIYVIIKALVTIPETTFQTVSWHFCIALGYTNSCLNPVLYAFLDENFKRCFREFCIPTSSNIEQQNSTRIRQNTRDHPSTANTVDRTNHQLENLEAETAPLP

Biological target: human MOR (Homo sapiens, UniProt P35372)
Details: read-out: Kd of radioligand, MOR; assay condition of the binding assay; ref MDS Pharma Services; cited from earlier work

CO[C@]12CC[C@@]3(C[C@@H]1C(C)(C)O)[C@H]1Cc4ccc(O)c5c4[C@@]3(CCN1CC1CC1)[C@H]2O5
pKd: 9.39

pKd: −log10 of the molar value.
